Bioassay records as filed in PubChem.
Hits are enriched below; roughly 16% of the tested compounds scored in any of these assays.
DT40 TDP1 CPT – growth inhibition of DT40 Tdp1-/-;hTDP1 cells with camptothecin (screen for TDP1 inhibitors); chicken DT40 Tdp1-/-;hTDP1 cells + 20 nM CPT, ATP luminescence, 48 h; Potency, µM (highest dose often 46.2 µM), for inactives: top-dose activity change, negative = growth inhibition, hits mostly inhibitors; hit rate 12% among 420,000; AID 686979; also: potency is read from the fitted curve at half-maximal effect; % is scaled to controls: 0 for no effect and ±100 for the full control effect; nearly all actives have a fitted effect of over 55% in size
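Cell growth measured by CellTiter-Glo luminescence after a minimum 48 h, 37 C compound exposure with 20 nM CPT in Tdp1-knockout DT40 cells stably expressing hTDP1, seeded 400/well; qHTS titration format.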
TDP1 block – blocks human tyrosyl-DNA phosphodiesterase 1. Q9NUW8. recombinant TDP1, AlphaScreen DNA substrate cleavage. Potency, µM (highest dose often 130 µM), for the others: top-dose activity change, negative = inhibition, actives largely listed as inhibitors. hit rate 0.28% among 350,000. AID 485290; also: potency is read from the fitted curve at half-maximal effect; % is scaled to controls: 0 for no effect and ±100 for the full control effect; nearly all actives have a fitted effect of over 40% in size
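Recombinant E. coli-expressed Tdp1 (1 nM) preincubated with compound 15 min at RT, then 5'-biotin/3'-phosphotyrosine-FITC DNA substrate (15 nM) added for 5 min. AlphaScreen beads (10 ug/ml) added, 10 min RT; tyrosine-FITC cleavage read as signal loss.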
uPA generation – inhibitors of cell surface uPA generation; Potency, µM (top dose mostly 38.3 µM), for inactives: at the top dose activity change, negative = inhibition, hits mostly inhibitors; hit rate 0.31% among 330,000; cell surface uPA generation assay, qHTS; AID 540303; active = well fitted inhibition curve with a large enough effect; inconclusive = small, poorly fitted or top-dose-only effect; inactive = no such curve, though single readings can be large or run the other way; tested in mouse RAW 264.7 cells; also: potency is read from the fitted curve at half-maximal effect; % is scaled to controls: 0 for no effect and ±100 for the full control effect; nearly all actives have a fitted effect of over 55% in size
DT40 TDP1 no CPT – qHTS for Inhibitors of human tyrosyl-DNA phosphodiesterase 1 (TDP1): qHTS in cells in absence of CPT; DT40 Tdp1-/- hTDP1 cells, no CPT, ATP luminescence, 48 h; AID 686978, 2013; hit rate 15% among 420,000; Potency, µM (series often up to 46.2 µM), inactives show at the highest dose activity change, negative = growth inhibition, actives largely listed as inhibitors; also: potency is read from the fitted curve at half-maximal effect; % is scaled to controls: 0 for no effect and ±100 for the full control effect; nearly all actives have a fitted effect of over 55% in size
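Readout: luminescence from CellTiter-Glo after 30 min in the dark at RT. Cells: DT40 Tdp1-/- with stable hTDP1, 400/well. Exposure: compounds alone, ≥48 hr, 37 °C.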
miR-21 FLuc – miR-21 reporter, rising signal | HeLa miR-21 FLuc reporter, luciferase, 48 h | Potency, µM (top dose mostly 38.3 µM), inactives show at the top dose reporter change, positive = more light | 340,000 tested, under 10 active | AID 2288; active = well fitted rising curve with a large enough effect; inconclusive = small, poorly fitted or top-dose-only effect; inactive = no such curve, though single readings can be large or run the other way;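 further: % of control where 0% means no effect; miR-21 action dims this reporter so a rising signal means less miR-21 action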
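Compounds were titrated across several concentrations (up to approximately 40 uM) and incubated 48 hours with HeLa miR-21-FLuc reporter cells (miR-21 target sequence downstream of FLuc, endogenous miR-21). Readout was firefly luciferase luminescence after lytic detection reagent.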
Starred values were filed as active, the others as inactive; ? = inconclusive; . = no result; [ ] = remark or other dose. Unless noted, calls follow the shape of the dose curve; as a rule, active = well fitted curve in the direction sought with a large enough effect; inconclusive = small, poorly fitted or top-dose-only effect, or another doubt; inactive = no such curve, though single readings can be large; an effect the other way counts as inactive or inconclusive.

Values run as follows: DT40 TDP1 CPT	TDP1 block	uPA generation	DT40 TDP1 no CPT	miR-21 FLuc
- CC[N+]1(CC)CCC(=C(c2ccccc2)c2ccccc2)C1C (centres undefined)
 : 5.31µM*	.	.	3.35µM*	.
- O=C(NCCc1ccccc1)C1CCC(Cn2c(=O)c3ccccc3n(Cc3cccc(F)c3)c2=O)CC1 (centres undefined)
 : ?	3.4%	3.7%	?	-6.9%
- COc1cc(NC(=O)Cn2c(=O)n(CC3CCC(C(=O)NCCc4ccccc4)CC3)c(=O)c3ccccc32)cc(OC)c1 (centres undefined)
 : 11.6µM*	2.5%	.	?	-11.4%
- O=C(NCCc1ccccc1)C1CCC(Cn2c(=O)c3ccccc3n(Cc3cccc(Cl)c3)c2=O)CC1 (centres undefined)
 : ?	.	-0.6%	14.6µM*	.
- Cc1cccc(NC(=O)Cn2c(=O)n(CC3CCC(C(=O)NCCc4ccccc4)CC3)c(=O)c3ccccc32)c1 (centres undefined)
 : 18.4µM*	0.0%[12.3 µM]	.	?	-1.5%
- COc1ccc(NC(=O)Cn2c(=O)n(CC(=O)NCCc3ccccc3)c(=O)c3ccccc32)cc1
 : -16.9%	-5.0%	.	-19.5%	-38.7%
- COc1ccccc1NC(=O)Cn1c(=O)n(CC2CCC(C(=O)NCCc3ccccc3)CC2)c(=O)c2ccccc21 (centres undefined)
 : 18.4µM*	-2.5%	.	?	-6.9%
- Cc1nc(SCc2nc3c(O)cccc3[nH]2)c2oc3ccccc3c2n1
 : .	-0.3%	-8.7%	.	.
- O=C(Nc1ccccc1C(=O)NCCc1ccccc1)c1ccco1
 : -8.3%	4.0%	0.6%	?	-7.0%
- Cn1cccc1C(C#N)c1ncc(C(F)(F)F)cc1Cl (centres undefined)
 : ?	0.0%	-5.0%	7.31µM*	3.2%

The final five records of the section before open the next one:
Values run as follows: DT40 TDP1 CPT	TDP1 block	uPA generation	DT40 TDP1 no CPT	miR-21 FLuc
- COc1ccc(NC(=O)Cn2c(=O)n(CC(=O)NCCc3ccccc3)c(=O)c3ccccc32)cc1
 : -16.9%	-5.0%	.	-19.5%	-38.7%
- COc1ccccc1NC(=O)Cn1c(=O)n(CC2CCC(C(=O)NCCc3ccccc3)CC2)c(=O)c2ccccc21 (centres undefined)
 : 18.4µM*	-2.5%	.	?	-6.9%
- Cc1nc(SCc2nc3c(O)cccc3[nH]2)c2oc3ccccc3c2n1
 : .	-0.3%	-8.7%	.	.
- O=C(Nc1ccccc1C(=O)NCCc1ccccc1)c1ccco1
 : -8.3%	4.0%	0.6%	?	-7.0%
- Cn1cccc1C(C#N)c1ncc(C(F)(F)F)cc1Cl (centres undefined)
 : ?	0.0%	-5.0%	7.31µM*	3.2%
- Cc1occc1-c1nnc(SCC(=O)Nc2nccs2)n1CCc1ccccc1
 : 14.6µM*	4.7%	6.6%	18.4µM*	-0.4%
- O=C(CSc1nnc(CCCO)n1-c1ccccc1)Nc1nccs1
 : -15.0%	-2.1%	.	-4.5%	-4.7%
- Cc1cccc(C)c1OCc1nnc(SCC(=O)Nc2nccs2)n1-c1ccccc1
 : ?	7.1%	0.5%	5.8µM*	0.3%
- Cc1cccc(-n2ccnc2SCC(=O)Nc2nccs2)c1C
 : ?	2.0%	-4.9%	16.4µM*	-1.4%
- Cn1c(CCCOc2ccc(Cl)cc2Cl)nnc1SCC(=O)Nc1nccs1
 : 23.1µM*	0.7%	3.9%	?	-2.3%
- O=C(CSc1nccn1Cc1ccccc1)Nc1nccs1
 : -11.8%	11.4%	1.9%	?	-45.5%
- CCc1nnc(NC(=O)CCC(=O)N2CCN(S(=O)(=O)c3cc(Cl)ccc3OC)CC2)s1
 : -3.9%	5.4%	1.0%	-8.1%	1.6%
- CCSc1ccc(NC(=O)c2cccnc2)cc1
 : -2.4%	-2.0%	-1.0%	-14.2%	-26.8%
- CCOc1ccc(CCNC(=O)c2nnn(CC(=O)Nc3ccc(C)cc3)c2N)cc1OCC
 : -16.4%	-8.3%	0.9%	9.5%	-4.3%
- CC(C)(C)c1nc2ccccc2c2nnc(SCC(=O)Nc3nccs3)n12
 : 3.26µM*	4.1%	-19.4%	4.61µM*	-6.4%
- CCOc1ccc(NC(=O)CSc2nccn2-c2cccc(C)c2C)cc1
 : 18.4µM*	8.8%	.	18.4µM*	?
- Cc1oc(-c2ccc(C(=O)N(C)Cc3ccccc3)cc2)nc1CN1CCc2ccccc21
 : .	8.9%	.	.	?
- CCCCc1ccc(CC(=O)NO)cc1
 : -18.8%	.	.	?	.
- CCCCCCCOc1ccc(CC(=O)NO)cc1
 : 10µM*	.	.	10µM*	.
- O=C(Cc1ccc(Cl)cc1)NC1CCCCCC1
 : -12.7%	.	6.2%	0.5%	-44.6%
- O=C(Cc1ccc(OCCC2CCCCC2)cc1)NO
 : 7.08µM*	.	.	10µM*	.
- Cc1cccc(NC(=O)/C(C#N)=C/c2ccccc2O)n1
 : -15.2%	.	-9.2%	3.3%	-59.1%
- COCCn1c(=O)c(-c2ccccc2)nc2cnc(Oc3cccc(Cl)c3)nc21
 : ?	.	.	-27.6%	.
- COc1cccc(CCNC(=O)c2ccc(Cn3c(SCc4ccccc4)nc4cccnc43)cc2)c1
 : ?	2.0%	.	20.6µM*	2.2%
- CCN(CC)CCNC(=O)c1ccc(Cn2c(SCc3ccccc3)nc3cccnc32)cc1
 : -22.8%	3.7%	.	-26.4%	-34.4%
- CN(Cc1ccccc1)C(=O)c1ccc(CSc2nc3cccnc3n2Cc2ccccc2)cc1
 : 11.6µM*	7.5%	.	?	?
- COc1ccc(CCNC(=O)c2ccc(Cn3c(SCc4ccccc4)nc4cccnc43)cc2)cc1
 : ?	4.9%	.	2.91µM*	-1.0%
- O=C(NCCc1ccccc1)c1ccc(CSc2nc3cccnc3n2Cc2ccccc2)cc1
 : ?	7.5%	.	14.6µM*	-5.0%
- O=C(NCCc1ccccc1)c1ccc(Cn2c(SCc3ccc(F)cc3)nc3cccnc32)cc1
 : ?	3.7%	.	-28.9%	-15.0%
- COc1ccc(NC(=O)c2sc3nc(C)c(C(=O)Nc4ccc(C)cc4C)c(-c4ccc(Cl)cc4)c3c2N)cc1
 : -3.8%	0.0%	.	-6.0%	6.1%
- O=C(N/N=C/c1ccc2c(c1)OCO2)c1cc(-c2ccncc2)nc2ccccc12
 : 3.66µM*	2.6%	-9.7%	4.11µM*	15.1%
- Cc1cc(C(=O)N/N=C/c2ccc3c(c2)OCO3)c2ccccc2n1
 : 2.31µM*	7.1%	?	2.06µM*	10.5%
- CN1c2ccsc2/C(=N/Nc2ccc(F)cc2)CS1(=O)=O
 : 2.06µM*	9.3%	-5.0%	2.59µM*	-47.0%
- CNS(=O)(=O)c1cn(CC(=O)N2CCN(c3ccc(OC)cc3)CC2)cc1S(=O)(=O)NC
 : -21.0%	5.6%	.	?	3.5%
- Cn1c(=O)oc2cc(S(=O)(=O)NCCC(=O)N3CCN(c4ccccc4)CC3)ccc21
 : ?	6.1%	5.0%	-15.1%	3.3%
- O=C(CCNS(=O)(=O)c1ccc2nsnc2c1)N1CCN(c2ccncc2)CC1
 : ?	1.4%	7.2%	16.4µM*	.
- CCNS(=O)(=O)c1ccc(CCC(=O)N2CCN(c3cccc(Cl)c3)CC2)cc1
 : ?	.	4.9%	23.1µM*	25.1%
- COc1ccc(S(=O)(=O)NCCS(=O)(=O)N2CCN(c3ccccc3)CC2)cc1C
 : 18.4µM*	4.1%	.	23.1µM*	23.9%
- CNS(=O)(=O)c1cn(CC(=O)N2CCN(c3cccc(Cl)c3)CC2)cc1S(=O)(=O)NC
 : ?	-2.8%	.	25.9µM*	4.2%
- COc1ccc(Cl)cc1NC(=O)CN(C)C(=O)/C=C/c1ccco1
 : -25.4%	0.9%	-5.9%	-20.3%	.
- CC(C)CC(=O)Nc1cccc(-c2nc3ncccc3o2)c1
 : ?	.	-5.3%	-20.3%	-17.5%
- Cc1ccc(S(=O)(=O)NCCC(=O)N2CCN(c3cccc(Cl)c3)CC2)cc1C
 : 14.6µM*	5.0%	-9.8%	?	9.8%
- COc1ccc(CN2CCN(c3ncccn3)CC2)c(OC)c1
 : -15.4%	-2.2%	0.5%	-11.8%	1.1%
